For one test, the target named is CK1 δ (Homo sapiens, UniProt P48730). Description: inhibition of CK1 δ by CK1 inhibitors. The test is classed as biochemical.
The next test concerns the target CK1 ε (Homo sapiens, UniProt P49674). Description: inhibition of CK1 ε by CK1 inhibitors. The class given is biochemical.

Sequences of proteins named here, by UniProt entry; tags and fusion partners are left off. A change or cut given only in a name is not applied to a line headed by its entry.
UniProt P48730: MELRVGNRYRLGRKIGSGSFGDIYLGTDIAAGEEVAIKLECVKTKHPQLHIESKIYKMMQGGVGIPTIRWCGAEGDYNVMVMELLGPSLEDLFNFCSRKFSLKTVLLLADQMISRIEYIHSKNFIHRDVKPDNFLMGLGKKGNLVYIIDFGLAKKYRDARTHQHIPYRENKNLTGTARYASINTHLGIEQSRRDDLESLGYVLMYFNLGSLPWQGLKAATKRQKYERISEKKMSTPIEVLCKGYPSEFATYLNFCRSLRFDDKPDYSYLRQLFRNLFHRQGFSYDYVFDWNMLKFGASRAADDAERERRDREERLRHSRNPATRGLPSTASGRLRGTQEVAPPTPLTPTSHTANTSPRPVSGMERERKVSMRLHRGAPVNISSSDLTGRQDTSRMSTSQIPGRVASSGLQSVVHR
UniProt P49674: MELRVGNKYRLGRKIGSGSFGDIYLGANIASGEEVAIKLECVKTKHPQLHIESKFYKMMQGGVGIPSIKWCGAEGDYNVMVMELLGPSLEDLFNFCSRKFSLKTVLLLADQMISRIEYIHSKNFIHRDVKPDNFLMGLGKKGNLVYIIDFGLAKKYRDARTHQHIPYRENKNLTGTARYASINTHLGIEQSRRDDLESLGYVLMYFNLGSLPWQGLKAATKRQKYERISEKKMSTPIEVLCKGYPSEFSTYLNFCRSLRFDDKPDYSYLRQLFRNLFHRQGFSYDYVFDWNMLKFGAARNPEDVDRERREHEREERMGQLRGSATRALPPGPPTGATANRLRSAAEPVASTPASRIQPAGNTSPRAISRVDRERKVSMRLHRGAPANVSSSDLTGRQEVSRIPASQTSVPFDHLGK

The values that follow come from US10973820B2, “Compounds for treatment of diseases related to DUX4 expression” (Facio Intellectual Property B.V., priority 2017, dated 2021).

A word on the IC50: it is the concentration that inhibits the measured activity by half. The low end stands for higher potency, the high end for lower potency. As for `CN1Cc2nccc(-c3cn(C)nc3-c3ccc(F)cc3)c2C1=O` [Compound E], the figures for the IC50 on CK1 δ and against CK1 ε were 31 nM and 84 nM, respectively.
